pIC50: −log10 of the molar value.
Target: Glutamate receptor ionotropic, NMDA 2A (Homo sapiens, UniProt Q05586+Q12879)
Test: Antagonistic activity against NR1A/2A receptors in frog oocytes
Type: functional, cell-based, Oocyte

By UniProt entry, the sequences of proteins in these tests, tags left out.
UniProt Q12879, whole entry: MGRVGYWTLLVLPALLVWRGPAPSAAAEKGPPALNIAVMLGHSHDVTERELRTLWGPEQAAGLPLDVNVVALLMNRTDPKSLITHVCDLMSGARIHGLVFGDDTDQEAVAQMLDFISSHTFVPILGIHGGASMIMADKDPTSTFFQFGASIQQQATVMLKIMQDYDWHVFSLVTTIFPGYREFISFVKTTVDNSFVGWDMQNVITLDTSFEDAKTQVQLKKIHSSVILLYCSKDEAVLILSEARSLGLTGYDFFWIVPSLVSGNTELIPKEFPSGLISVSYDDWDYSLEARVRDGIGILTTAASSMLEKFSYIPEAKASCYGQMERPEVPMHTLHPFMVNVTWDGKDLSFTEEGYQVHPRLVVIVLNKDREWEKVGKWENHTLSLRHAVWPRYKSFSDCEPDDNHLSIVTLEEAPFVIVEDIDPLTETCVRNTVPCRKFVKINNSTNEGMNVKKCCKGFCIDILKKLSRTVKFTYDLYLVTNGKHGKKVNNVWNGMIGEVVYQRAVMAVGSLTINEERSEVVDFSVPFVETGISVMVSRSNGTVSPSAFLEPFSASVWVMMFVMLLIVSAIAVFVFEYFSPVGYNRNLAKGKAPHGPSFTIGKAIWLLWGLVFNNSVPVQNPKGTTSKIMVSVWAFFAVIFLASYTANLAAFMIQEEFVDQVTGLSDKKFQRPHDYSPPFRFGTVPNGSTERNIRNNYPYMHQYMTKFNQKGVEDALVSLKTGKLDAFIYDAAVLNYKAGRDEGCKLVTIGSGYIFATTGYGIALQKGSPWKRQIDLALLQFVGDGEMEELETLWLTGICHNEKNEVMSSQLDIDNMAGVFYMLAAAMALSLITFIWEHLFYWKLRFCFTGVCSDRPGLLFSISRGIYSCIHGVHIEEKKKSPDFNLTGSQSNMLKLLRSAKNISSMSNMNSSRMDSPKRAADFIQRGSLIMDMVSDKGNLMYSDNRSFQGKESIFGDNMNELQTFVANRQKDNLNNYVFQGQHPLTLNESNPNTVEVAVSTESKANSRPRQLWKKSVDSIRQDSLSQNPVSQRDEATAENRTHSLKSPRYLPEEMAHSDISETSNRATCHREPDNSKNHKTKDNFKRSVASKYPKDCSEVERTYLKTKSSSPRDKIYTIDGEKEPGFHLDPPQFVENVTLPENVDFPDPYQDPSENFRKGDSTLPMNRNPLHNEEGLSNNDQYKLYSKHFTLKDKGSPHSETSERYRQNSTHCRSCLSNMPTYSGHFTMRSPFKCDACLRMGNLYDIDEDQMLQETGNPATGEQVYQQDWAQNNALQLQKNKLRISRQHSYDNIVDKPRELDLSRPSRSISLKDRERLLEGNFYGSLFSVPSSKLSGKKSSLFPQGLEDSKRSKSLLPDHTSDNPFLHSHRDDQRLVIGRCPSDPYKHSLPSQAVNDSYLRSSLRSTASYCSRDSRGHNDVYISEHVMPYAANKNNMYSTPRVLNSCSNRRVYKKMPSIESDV

- pIC50: 4.12
SMILES: c1ccc(CC2CCN(CCSc3nc4ccccc4[nH]3)CC2)cc1
